Measured values reported in patent US6369101B1, “Therapeutic method to treat herpes virus infection” (Regents of the University of Minnesota, priority 1999, dated 2002).

Experiments:
HFF cells = test: CC50 in HFF cells (Table 3); assay type: cell-based, human
Protocol: The cells were observed daily for any change in morphology. The rounding and lysis of cells were observed if the compound has cytotoxic effect. At the end of this time, the media-drug solution was removed and the cells washed. […] The cells-media mixture was then pipetted up and down several times to resuspend the cells and 0.2 ml of the cell suspension was added to 9.8 ml of trypan blue and cells were counted using hemocytometer. Each sample was counted three times with three replicate wells per sample.

Daudi cells = test: CC50 in Daudi cells (Table 3); assay type: cell-based; settings: Epstein-Barr Virus section of Table 3
[1] = system: Human laryngeal epithelial carcinoma cells (HEp-2); test: Cytotoxicity in HEp-2 cells; assay type: cell-based; settings: conc. per compound (ng/ml)
Protocol: (§1) Human laryngeal epithelial carcinoma cells (HEp-2, ATCC, Rockville, Md.) were used for testing of antiviral compounds by cytopathic effect (CPE) inhibition and plaque reduction assay. […] HEp-2, African green monkey kidney cells (Vero, ATCC), HFF and primary rabbit kidney cells were used to determine the cytotoxic effect of compounds of formula I. These cells were propagated in Dulbeco's modified Eagle's medium (DMEM) (Sigma, USA) supplemented with 10% inactivated fetal calf serum (FCS), 25 mM HEPES, 0.2% sodium bicarbonate and 1% penicillin/-streptomycin at 37° C. in the presence of 5% CO2.
(§2) HFF, Vero and HEp-2 cells were seeded in 24-well tissue culture plates at a concentration of […] in DMEM containing 10% FCS and incubated for 24 hours at 37° C. in the presence of 5% CO2. To the monolayer of these cells 0.5, 1.0, 1.5 and 2.0 ml of solution of antiviral compounds were added in the respective wells in duplicate and the cells were then incubated in a 5% CO2 incubator at 37° C. for 72 hours. The cells were observed daily for any change in morphology. […] The cells-media mixture was then pipetted up and down several times to resuspend the cells and 0.2 ml of the cell suspension was added to 9.8 ml of trypan blue and cells were counted using hemocytometer. Each sample was counted three times with three replicate wells per sample.

[2] = system: Primary human foreskin fibroblast cells (HFF); test: Cell proliferation assay (cytotoxicity) in HFF cells; assay type: cell-based
Protocol: as §1, §2

[3] = system: Primary Rabbit Kidney cells; test: Cytotoxic effect in primary rabbit kidney cells; assay type: cell-based
Protocol: as §1, §2

With Betulin glycerol oxalate the CC50 (HFF cells; Human Cytomegalovirus section of Table 3) was over 0.1 µg/mL, the CC50 (HFF cells; Varicella-Zoster Virus section of Table 3) was 0.0635 µg/mL and the CC50 (Daudi cells) was over 0.05 µg/mL.

“acycloguanosine [Acyclovir, reference compound]” was tested, and the “Cell Cytotoxicity” value [1] was “−”, the “Qualitative Cytotoxic Effect at 2.0 ml dose” value ([2]; Conc. 12500 ng/ml) was “−” and the “Qualitative Cytotoxic Effect at 2.0 ml dose” value ([2]; solution conc. per compound (ng/ml) (Acyclovir 250)) was “−”. The “cytotoxicity (in words)” value [3] was “No cytotoxicity”.
